Reference: US10399961B2, “Heteroarylcarboxamide derivatives as plasma kallikrein inhibitors” (Boehringer Ingelheim International GmbH, priority 2015, dated 2019)

By UniProt entry, the sequences of proteins in these tests, tags left out. Residues count along the entry.
UniProt P03952, 391-638 limits assumed: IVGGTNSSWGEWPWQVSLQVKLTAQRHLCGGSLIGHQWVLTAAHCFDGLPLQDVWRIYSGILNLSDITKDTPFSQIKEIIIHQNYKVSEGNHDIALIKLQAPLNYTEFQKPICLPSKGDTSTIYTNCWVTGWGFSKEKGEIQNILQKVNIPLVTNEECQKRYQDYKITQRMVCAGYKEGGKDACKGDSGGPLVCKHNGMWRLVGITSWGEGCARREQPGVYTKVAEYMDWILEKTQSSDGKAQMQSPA
UniProt P03952, 20-390 partner limits assumed: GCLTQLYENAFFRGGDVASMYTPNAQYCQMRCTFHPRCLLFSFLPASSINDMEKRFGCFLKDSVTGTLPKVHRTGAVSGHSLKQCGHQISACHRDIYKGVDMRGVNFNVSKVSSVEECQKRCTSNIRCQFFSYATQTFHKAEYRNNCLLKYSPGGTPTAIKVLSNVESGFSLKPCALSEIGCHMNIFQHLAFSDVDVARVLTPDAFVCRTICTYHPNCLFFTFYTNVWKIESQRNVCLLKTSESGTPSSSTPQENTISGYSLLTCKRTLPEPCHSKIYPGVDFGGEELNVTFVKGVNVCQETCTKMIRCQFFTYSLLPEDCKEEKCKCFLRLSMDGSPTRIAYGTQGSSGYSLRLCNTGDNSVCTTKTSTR

Target: human Plasma Kallikrein (KLKB1) (Homo sapiens (Human), UniProt P03952)
Assay: Inhibition of KLKB1 endpoint assay
Conditions: read-out: IC50 measurements for the inhibition of human Plasma Kallikrein (KLKB1), fluorogenic substrate H-Pro-Phe-Arg-AMC, 1 hr at Room Temperature
Protocol: The ability of compounds of Formula I to inhibit plasma kallikrein (KLKB1), Factor XIIa (FXIIa), Factor XIa (FXIa), Factor Xa (FXa), Factor IIa (alpha-thrombin; FIIa), plasmin, trypsin, tissue kallikrein 1 (KLK1), Factor VIIa (FVIIa), or FVIIa complexed with Tissue Factor, phospholipids and CaCl2 (FVIIa/TF/PL/CaCl2) was determined using the following biochemical assays in assay buffer (100 mM Tris, 150 mM NaCL, adjusted to a pH of 7.8 with HCl, and containing 0.1% (w/v) BSA and 0.05% (v/v) Tween20) in the presence of 1% (v/v) DMSO:
Human KLKB1 (0.01 U/mL; Enzyme Research Laboratories) or rat KLKB1 (0.625 nM; produced in-house) was incubated for 1 hr at Room Temperature with 0.10 μM fluorogenic substrate H-Pro-Phe-Arg-AMC (11295 from Bachem) and various concentrations of the test compound in assay buffer. Subsequently, PPACK II (Calbiochem) was added as a stop solution to achieve a final concentration of 1 μM and fluorescence was measured using an Envision Reader (PerkinElmer) with the wavelength excitation setting of 355 nm and the wavelength emission setting of 460 nm.

**Q.** For `Cc1cc(N)nc2c1C(NC(=O)c1cnn(Cc3ccc(Cn4ccccc4=O)cc3)c1)CC2` (centres unmarked), which IC50 is on record?
**A.** 4 nM

**Q.** With `Nc1ccc2c(n1)CCC2NC(=O)c1cnn(Cc2ccc(Cn3ccccc3=O)cc2)c1` (centres unmarked) as the compound, how does the IC50 read?
**A.** 9 nM
